Measurements: patent publication US9175000B2, “Buprenorphine analogs” (dated 2015)

Key:
[1] = target: T1, recombinant μ opioid receptor (Homo sapiens (Human), UniProt P35372); assay: μ-opioid receptor [35S]GTPγS functional assay, U-2 OS cell membranes; settings: U-2 OS cells; relative to DAMGO
[2] = target: T2, recombinant human κ opioid receptor (Homo sapiens (Human), UniProt P41145); assay: κ-opioid receptor [35S]GTPγS functional assay, U-2 OS cell membranes; settings: U-2 OS cells; relative to U69,593
[3] = target: T1, recombinant μ opioid receptor; assay: μ-opioid receptor [35S]GTPγS functional assay, HEK-293 or CHO cell membranes; settings: HEK-293 or CHO cells; relative to DAMGO
[4] = target: T2, recombinant human κ opioid receptor; assay: κ-opioid receptor [35S]GTPγS functional assay, HEK-293 or CHO cell membranes; settings: HEK-293 or CHO cells; relative to U69,593

| SMILES | GTPγS μ Emax [1] [%] | GTPγS κ Emax [2] [%] | GTPγS μ Emax [3] [%] | GTPγS κ Emax [4] [%] |
| --- | --- | --- | --- | --- |
| COc1ccc2c3c1O[C@H]1[C@@]4(OC)CC[C@@]5(C[C@@H]4C(NC(C)C(=O)O)c4ccccc4)[C@@H](C2)N(CC2CC2)CC[C@]315 (some centres unmarked) | 38.99 ± 4.04 | 102.00 ± 4.04 | 40.67 ± 2.91 | 43.33 ± 2.33 |
| COc1ccc2c3c1O[C@H]1[C@@]4(OC)CC[C@@]5(C[C@@H]4C(NC(C(=O)O)c4ccccc4)c4ccccc4)[C@@H](C2)N(CC2CC2)CC[C@]315 (some centres unmarked) | – | – | 45.33 ± 0.88 | 51.00 ± 3.06 |
| COc1ccc2c3c1O[C@H]1[C@@]4(OC)CC[C@@]5(C[C@@H]4C(NC(C)C(N)=O)c4ccccc4)[C@@H](C2)N(CC2CC2)CC[C@]315 (some centres unmarked) | 43.70 ± 2.33 | 102.30 ± 4.37 | 32.75 ± 1.89 | 61.67 ± 6.98 |
| COc1ccc2c3c1O[C@H]1[C@@]4(OC)CC[C@@]5(C[C@@H]4[C@](O)(CC(O)CO)c4ccccc4)[C@@H](C2)N(CC2CC2)CC[C@]315 (some centres unmarked) | – | – | 41.75 ± 3.12 | 33.67 ± 1.86 |
| COc1ccc2c3c1O[C@H]1[C@@]4(OC)CC[C@@]5(C[C@@H]4C(N[C@H](C(N)=O)c4ccccc4)c4ccccc4)[C@@H](C2)N(CC2CC2)CC[C@]315 (some centres unmarked) | – | – | 67.67 ± 1.76 | – |
| COc1ccc2c3c1O[C@H]1[C@@]4(OC)CC[C@@]5(C[C@@H]4C(NCC(=O)O)c4ccccc4)[C@@H](C2)N(CC2CC2)CC[C@]315 (some centres unmarked) | – | – | 83.50 ± 5.25 | 52.25 ± 1.93 |
| COc1ccc2c3c1O[C@H]1[C@@]4(OC)CC[C@@]5(C[C@@H]4C(N[C@@H](C(N)=O)c4ccccc4)c4ccccc4)[C@@H](C2)N(CC2CC2)CC[C@]315 (some centres unmarked) | – | – | 23.67 ± 1.76 | 70.67 ± 3.71 |
